Experimental findings from US8865894B2, “Oxazolidin-2-one compounds and uses thereof” (Novartis AG, priority 2012, dated 2014) are described below.

By UniProt entry, the sequences of proteins in these tests, tags left out.
UniProt P48736, whole entry: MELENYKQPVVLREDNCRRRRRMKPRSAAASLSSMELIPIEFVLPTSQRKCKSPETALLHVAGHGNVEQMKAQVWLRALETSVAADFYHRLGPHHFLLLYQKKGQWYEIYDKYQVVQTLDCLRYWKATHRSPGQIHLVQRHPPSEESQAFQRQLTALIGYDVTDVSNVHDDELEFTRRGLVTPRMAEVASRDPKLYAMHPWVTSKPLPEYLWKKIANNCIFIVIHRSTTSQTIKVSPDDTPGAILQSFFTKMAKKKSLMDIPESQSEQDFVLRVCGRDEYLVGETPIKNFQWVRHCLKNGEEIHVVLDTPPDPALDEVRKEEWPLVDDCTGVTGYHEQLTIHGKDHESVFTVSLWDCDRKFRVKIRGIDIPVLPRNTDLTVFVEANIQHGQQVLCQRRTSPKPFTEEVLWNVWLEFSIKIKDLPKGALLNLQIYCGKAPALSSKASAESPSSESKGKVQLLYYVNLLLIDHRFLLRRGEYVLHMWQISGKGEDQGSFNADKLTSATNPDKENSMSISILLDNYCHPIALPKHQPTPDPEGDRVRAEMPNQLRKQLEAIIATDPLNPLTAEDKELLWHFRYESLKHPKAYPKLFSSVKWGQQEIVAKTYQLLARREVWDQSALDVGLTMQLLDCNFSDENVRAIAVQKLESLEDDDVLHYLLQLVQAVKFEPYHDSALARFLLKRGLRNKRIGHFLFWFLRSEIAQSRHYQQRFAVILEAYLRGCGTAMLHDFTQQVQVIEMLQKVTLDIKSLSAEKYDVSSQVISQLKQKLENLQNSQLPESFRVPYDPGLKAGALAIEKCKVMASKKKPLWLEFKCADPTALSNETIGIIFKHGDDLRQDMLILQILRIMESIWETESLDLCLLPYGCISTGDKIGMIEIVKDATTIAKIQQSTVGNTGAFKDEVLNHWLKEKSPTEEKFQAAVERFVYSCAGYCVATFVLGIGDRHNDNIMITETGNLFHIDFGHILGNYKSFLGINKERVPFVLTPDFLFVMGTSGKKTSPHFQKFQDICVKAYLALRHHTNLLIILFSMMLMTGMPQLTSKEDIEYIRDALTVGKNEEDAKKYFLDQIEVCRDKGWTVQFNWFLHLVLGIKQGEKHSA
UniProt P42336, whole entry: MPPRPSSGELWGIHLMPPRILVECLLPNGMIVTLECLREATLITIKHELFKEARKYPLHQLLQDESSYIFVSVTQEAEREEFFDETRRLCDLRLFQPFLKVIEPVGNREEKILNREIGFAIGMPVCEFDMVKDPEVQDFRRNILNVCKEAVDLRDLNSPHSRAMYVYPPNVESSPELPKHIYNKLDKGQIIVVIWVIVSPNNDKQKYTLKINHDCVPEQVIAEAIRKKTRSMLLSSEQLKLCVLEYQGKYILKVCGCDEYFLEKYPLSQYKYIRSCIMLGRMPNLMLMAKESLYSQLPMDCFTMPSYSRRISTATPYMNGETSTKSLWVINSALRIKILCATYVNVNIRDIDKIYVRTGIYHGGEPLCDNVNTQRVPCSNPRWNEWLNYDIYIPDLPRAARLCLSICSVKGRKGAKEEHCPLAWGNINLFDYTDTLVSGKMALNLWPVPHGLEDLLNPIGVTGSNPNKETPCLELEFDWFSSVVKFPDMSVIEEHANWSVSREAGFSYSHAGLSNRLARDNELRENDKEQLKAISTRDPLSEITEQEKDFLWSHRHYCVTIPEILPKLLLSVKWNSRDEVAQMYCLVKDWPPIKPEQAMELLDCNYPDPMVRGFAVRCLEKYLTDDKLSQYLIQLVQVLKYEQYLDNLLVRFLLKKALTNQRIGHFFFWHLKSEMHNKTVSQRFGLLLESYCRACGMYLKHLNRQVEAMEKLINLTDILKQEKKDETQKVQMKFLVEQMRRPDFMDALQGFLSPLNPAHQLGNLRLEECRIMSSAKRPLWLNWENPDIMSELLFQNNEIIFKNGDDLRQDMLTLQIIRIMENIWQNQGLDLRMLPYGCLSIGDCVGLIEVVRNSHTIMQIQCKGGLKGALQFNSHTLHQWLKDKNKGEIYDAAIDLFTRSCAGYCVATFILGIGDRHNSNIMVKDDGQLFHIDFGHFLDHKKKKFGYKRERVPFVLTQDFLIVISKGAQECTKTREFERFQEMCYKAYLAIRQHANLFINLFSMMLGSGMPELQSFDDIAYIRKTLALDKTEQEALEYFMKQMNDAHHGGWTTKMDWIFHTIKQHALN
UniProt P42338, whole entry: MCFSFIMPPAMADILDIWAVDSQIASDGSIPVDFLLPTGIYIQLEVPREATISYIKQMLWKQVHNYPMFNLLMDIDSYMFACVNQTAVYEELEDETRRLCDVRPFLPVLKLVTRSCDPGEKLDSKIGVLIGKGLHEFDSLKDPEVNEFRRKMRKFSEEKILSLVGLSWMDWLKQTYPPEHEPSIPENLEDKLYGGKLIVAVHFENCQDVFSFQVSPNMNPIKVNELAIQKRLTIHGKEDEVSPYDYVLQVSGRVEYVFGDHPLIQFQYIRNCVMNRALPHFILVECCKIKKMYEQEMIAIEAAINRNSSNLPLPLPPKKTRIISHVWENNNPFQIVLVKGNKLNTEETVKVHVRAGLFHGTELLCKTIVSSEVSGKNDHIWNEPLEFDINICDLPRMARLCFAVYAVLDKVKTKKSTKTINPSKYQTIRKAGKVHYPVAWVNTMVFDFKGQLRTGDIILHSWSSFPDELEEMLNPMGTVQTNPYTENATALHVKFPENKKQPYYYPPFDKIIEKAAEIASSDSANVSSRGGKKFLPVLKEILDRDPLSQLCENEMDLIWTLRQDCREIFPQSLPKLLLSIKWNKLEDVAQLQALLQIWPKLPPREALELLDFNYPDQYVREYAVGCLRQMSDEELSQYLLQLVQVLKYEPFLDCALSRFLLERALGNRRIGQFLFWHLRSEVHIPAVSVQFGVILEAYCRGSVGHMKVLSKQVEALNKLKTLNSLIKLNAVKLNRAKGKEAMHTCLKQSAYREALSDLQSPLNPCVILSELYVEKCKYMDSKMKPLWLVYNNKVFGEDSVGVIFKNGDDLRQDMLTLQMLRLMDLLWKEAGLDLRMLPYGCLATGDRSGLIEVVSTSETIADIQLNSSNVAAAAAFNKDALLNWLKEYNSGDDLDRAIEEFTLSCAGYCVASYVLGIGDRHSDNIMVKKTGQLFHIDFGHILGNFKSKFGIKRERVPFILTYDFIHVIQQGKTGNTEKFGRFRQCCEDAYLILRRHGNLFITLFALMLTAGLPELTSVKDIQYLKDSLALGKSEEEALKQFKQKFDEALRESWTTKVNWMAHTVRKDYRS
UniProt O00329, whole entry: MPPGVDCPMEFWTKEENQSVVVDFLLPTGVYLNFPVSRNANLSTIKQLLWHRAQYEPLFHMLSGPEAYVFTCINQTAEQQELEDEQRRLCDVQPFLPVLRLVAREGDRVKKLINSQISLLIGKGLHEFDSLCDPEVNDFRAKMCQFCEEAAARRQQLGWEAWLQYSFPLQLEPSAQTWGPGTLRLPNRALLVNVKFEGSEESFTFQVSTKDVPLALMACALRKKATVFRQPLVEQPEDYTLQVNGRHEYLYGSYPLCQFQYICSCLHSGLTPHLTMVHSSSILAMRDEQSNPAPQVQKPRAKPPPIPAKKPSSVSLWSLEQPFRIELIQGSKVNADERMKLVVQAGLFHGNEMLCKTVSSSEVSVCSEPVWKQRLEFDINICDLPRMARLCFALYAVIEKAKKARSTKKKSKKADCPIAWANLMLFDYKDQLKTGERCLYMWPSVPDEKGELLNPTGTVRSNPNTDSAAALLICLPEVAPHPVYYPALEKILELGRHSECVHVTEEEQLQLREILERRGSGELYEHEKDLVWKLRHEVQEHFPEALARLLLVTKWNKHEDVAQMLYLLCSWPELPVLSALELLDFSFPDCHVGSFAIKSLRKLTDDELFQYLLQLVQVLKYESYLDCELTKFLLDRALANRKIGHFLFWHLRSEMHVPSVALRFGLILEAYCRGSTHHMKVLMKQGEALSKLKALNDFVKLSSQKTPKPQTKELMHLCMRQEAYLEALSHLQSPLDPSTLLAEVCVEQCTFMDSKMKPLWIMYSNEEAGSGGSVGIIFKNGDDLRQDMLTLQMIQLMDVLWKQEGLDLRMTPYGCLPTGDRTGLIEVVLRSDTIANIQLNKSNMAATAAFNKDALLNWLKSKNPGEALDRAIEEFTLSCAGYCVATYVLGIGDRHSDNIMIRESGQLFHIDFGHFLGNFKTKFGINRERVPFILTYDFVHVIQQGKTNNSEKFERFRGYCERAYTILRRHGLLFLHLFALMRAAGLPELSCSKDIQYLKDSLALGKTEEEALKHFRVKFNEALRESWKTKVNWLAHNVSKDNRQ
UniProt Q63787, whole entry partner: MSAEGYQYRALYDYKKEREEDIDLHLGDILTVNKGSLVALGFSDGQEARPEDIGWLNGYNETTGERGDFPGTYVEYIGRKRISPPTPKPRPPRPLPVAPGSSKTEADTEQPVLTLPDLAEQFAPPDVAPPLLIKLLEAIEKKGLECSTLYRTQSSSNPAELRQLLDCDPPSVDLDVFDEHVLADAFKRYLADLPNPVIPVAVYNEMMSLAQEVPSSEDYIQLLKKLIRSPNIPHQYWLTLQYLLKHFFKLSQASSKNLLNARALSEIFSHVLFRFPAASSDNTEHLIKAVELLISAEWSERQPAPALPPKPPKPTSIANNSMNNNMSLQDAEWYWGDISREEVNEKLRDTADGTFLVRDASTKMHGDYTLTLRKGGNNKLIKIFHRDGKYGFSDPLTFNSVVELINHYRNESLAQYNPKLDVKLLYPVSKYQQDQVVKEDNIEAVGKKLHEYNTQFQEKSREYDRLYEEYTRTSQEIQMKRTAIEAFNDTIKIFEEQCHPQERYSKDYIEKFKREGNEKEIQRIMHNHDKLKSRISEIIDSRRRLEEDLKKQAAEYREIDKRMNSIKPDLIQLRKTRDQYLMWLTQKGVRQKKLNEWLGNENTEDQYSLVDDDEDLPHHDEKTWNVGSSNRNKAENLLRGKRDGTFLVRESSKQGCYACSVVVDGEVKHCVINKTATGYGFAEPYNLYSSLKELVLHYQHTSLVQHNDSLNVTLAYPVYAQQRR

For one data set, the target named is PI3Kgamma (Homo sapiens, UniProt P48736). Kind of data set: Biochemical PI3Kgamma (TR-FRET Adapta Universal Kinase Assay). The conditions noted are these: read-out: PIK3g/ IC50, mean of n measurements.
For data set [1], the target named is human PI3Kalpha p110 catalytic subunit (Rat-1 pBABEpuro Myr-HA-hp110alpha) (Homo sapiens, UniProt P42336). Kind of data set: Cellular assay PI3Kalpha (p-Akt(S473) SureFire, Rat-1_PI3Kalpha cells). Type of data set: cell-based. The conditions noted are these: 1 h compound treatment.
Data set [2] addresses human PI3Kbeta p110 catalytic subunit (Rat-1 pBABEpuro Myr-HA-hp110 beta) (Homo sapiens, UniProt P42338). Put plainly: Cellular assay PI3Kbeta (p-Akt(S473) SureFire, Rat-1_PI3beta cells). The conditions noted are these: read-out: Rat1-PI3Kb/ IC50, 1 h compound treatment. Type of data set: cell-based.
The next data set concerns the target mTOR (Mus musculus, UniProt Q9JLN9). Put plainly: Cellular assay mTOR (phospho-T389 S6K1 SureFire in TSC1-/- MEF cells). The following applies: read-out: mTOR S6K(T389)_TSC1ko/ IC50.
A further data set relates to A2058 cells. Put plainly: Cell cycle G2/M arrest Cytospin assay to detect tubulin binding (off-target). The conditions noted are these: 5 μM test item, 24 hours.
In data set [3] the target is human PI3Kdelta p110 catalytic subunit (Rat-1 pBABEpuro Myr-HA-hp110 delta) (Homo sapiens, UniProt O00329). Put plainly: Cellular assay PI3Kdelta (p-Akt(S473) SureFire, Rat-1_PI3Kdelta cells). In kind it is cell-based. The following applies: read-out: Rat1-PI3Kd/ IC50, 1 h compound treatment.

In the case of `Nc1cc(C(F)(F)F)c(-c2cc(N3CCOC(c4ccccc4)C3)nc(N3CCOCC3)n2)cn1` (stereo not shown), the results for the IC50 (on PI3Kgamma; in data set [2]; at mTOR) were greater than 9100 nM, 4040 nM and greater than 2270 nM, respectively. In addition, the “Rat1-PI3Ka/ IC50” value in data set [1] is listed as 1.247 umol I-1. Moreover, the “Score (condensed DNA, G2/M arrest; off-target tubulin binding)” value (“Score” below) with A2058 cells was found to be 0.
Take `Nc1cc(C(F)(F)F)c(-c2cc(N3CCC(=O)CC3)nc(N3CCOCC3)n2)cn1`: the IC50 at mTOR was greater than 2270 nM. Further, the “Score” value with A2058 cells was found to be 0.
Regarding `Nc1cc(C(F)(F)F)c(-c2cc(N3CCS(=O)(=O)CC3)nc(N3CCOCC3)n2)cn1`, the “Rat1-PI3Ka/ IC50” value in data set [1] was 1.770 umol I-1. The figures for the IC50 (in data set [2]; on mTOR) were 8220 nM and greater than 2270 nM, respectively. For the same compound, in the data set with A2058 cells, the “Score” value turned out to be 0.
With `Nc1cc(C(F)(F)F)c(-c2cc(N3CCCCC3=O)nc(N3CCOCC3)n2)cn1`, in data set [1], the “Rat1-PI3Ka/ IC50” value stood at 0.460 umol I-1. Also, the IC50 in data set [3] came to 1030 nM; on mTOR it was 2120 nM. For the same compound, the “Score” value with A2058 cells was found to be 0.
Regarding `Nc1cc(C(F)(F)F)c(-c2cc(N3CCN(c4ccccc4)C3=O)nc(N3CCOCC3)n2)cn1`, in data set [1], the “Rat1-PI3Ka/ IC50” value is 0.669 umol I-1. Also, the IC50 is 1290 nM in data set [3] and greater than 2270 nM at mTOR. Further, the “Score” value with A2058 cells is 0.
For the compound `Nc1ncc(-c2cc(N3CCOCC3)nc(N3CCOCC3)n2)c(C(F)(F)F)n1`, the IC50 was found to be 238 nM in data set [3] and 1000 nM on mTOR. In the data set on A2058 cells, the “Score” value is 3.
